{"sequences": {"note": "Amino acid sequences for entries named in this document (tags omitted). Chains listed by the source or under a name are the forms on record and can include a tag or linker.", "UniProt Q9BUB5, with tags, fused parts or gaps T344D limits assumed": "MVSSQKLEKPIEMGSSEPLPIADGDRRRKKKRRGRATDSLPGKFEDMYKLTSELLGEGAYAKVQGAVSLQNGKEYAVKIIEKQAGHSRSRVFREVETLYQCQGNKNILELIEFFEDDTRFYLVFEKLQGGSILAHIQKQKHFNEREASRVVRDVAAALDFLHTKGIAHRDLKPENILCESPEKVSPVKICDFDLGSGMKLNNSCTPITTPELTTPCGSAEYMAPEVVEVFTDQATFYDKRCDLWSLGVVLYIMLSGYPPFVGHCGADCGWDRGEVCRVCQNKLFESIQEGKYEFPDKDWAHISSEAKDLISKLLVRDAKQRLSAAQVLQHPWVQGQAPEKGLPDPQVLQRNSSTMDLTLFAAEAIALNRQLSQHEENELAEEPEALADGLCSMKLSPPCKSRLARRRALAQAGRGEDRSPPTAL"}, "source": "patent US11311520B2", "about": "“Substituted dihydroimidazopyridinediones as MKNK1 and MKNK2 inhibitors” (Bayer Pharma Aktiengesellschaft, priority 2017, dated 2022)", "biological_target": "human full-length MKNK1 (Homo sapiens (Human), UniProt Q9BUB5, T344D)", "assay": "MKNK1 kinase high ATP assay (TR-FRET)", "conditions": "read-out: MKNK1 IC50, 2 mM ATP, 15 min preincubation with enzyme, GST-MKNK1 (T344D)", "procedure": "MKNK1 Kinase High ATP Assay\nMKNK1-inhibitory activity at high ATP of compounds of the present invention after their preincubation with MKNK1 was quantified employing the TR-FRET-based MKNK1 high ATP assay as described in the following paragraphs.\nA recombinant fusion protein of Glutathione-S-Transferase (GST, N-terminally) and human full-length MKNK1 (amino acids 1-424 and T344D of accession number BAA 19885.1), expressed in insect cells using baculovirus expression system and purified via glutathione sepharose affinity chromatography, was purchased from Carna Biosciences (product no 02-145) and used as enzyme. As substrate for the kinase reaction the biotinylated peptide biotin-Ahx-IKKRKLTRRKSLKG (SEQ ID NO: 1) (C-terminus in amide form) was used, which can be purchased e.g. from the company Biosyntan (Berlin-Buch, Germany) […]\nThe resulting mixture was incubated for 1 h at 22° C. to allow the formation of complex between the phosphorylated biotinylated peptide and the detection reagents. Subsequently the amount of phosphorylated substrate was evaluated by measurement of the resonance energy transfer from the Eu-chelate to the streptavidine-XL. Therefore, the fluorescence emissions at 620 nm and 665 nm after excitation at 350 nm were measured in a TR-FRET reader, e.g. a Rubystar (BMG Labtechnologies, Offenburg, Germany) or a Viewlux (Perkin-Elmer). […]", "data": [{"smiles": "Cc1cc(Nc2ncnc3scnc23)c(=O)n2c1C(=O)NC21CCC1", "values": [{"measurement": "IC50", "result": 11.6, "unit": "nM"}]}]}
